Measurements reported in US10222368B2 (priority 2012, dated 2019).

Protein sequences, listed by entry. Tags and fused reporters are not part of them. Residues count along the entry.
UniProt P21333, 2-2647 limits assumed: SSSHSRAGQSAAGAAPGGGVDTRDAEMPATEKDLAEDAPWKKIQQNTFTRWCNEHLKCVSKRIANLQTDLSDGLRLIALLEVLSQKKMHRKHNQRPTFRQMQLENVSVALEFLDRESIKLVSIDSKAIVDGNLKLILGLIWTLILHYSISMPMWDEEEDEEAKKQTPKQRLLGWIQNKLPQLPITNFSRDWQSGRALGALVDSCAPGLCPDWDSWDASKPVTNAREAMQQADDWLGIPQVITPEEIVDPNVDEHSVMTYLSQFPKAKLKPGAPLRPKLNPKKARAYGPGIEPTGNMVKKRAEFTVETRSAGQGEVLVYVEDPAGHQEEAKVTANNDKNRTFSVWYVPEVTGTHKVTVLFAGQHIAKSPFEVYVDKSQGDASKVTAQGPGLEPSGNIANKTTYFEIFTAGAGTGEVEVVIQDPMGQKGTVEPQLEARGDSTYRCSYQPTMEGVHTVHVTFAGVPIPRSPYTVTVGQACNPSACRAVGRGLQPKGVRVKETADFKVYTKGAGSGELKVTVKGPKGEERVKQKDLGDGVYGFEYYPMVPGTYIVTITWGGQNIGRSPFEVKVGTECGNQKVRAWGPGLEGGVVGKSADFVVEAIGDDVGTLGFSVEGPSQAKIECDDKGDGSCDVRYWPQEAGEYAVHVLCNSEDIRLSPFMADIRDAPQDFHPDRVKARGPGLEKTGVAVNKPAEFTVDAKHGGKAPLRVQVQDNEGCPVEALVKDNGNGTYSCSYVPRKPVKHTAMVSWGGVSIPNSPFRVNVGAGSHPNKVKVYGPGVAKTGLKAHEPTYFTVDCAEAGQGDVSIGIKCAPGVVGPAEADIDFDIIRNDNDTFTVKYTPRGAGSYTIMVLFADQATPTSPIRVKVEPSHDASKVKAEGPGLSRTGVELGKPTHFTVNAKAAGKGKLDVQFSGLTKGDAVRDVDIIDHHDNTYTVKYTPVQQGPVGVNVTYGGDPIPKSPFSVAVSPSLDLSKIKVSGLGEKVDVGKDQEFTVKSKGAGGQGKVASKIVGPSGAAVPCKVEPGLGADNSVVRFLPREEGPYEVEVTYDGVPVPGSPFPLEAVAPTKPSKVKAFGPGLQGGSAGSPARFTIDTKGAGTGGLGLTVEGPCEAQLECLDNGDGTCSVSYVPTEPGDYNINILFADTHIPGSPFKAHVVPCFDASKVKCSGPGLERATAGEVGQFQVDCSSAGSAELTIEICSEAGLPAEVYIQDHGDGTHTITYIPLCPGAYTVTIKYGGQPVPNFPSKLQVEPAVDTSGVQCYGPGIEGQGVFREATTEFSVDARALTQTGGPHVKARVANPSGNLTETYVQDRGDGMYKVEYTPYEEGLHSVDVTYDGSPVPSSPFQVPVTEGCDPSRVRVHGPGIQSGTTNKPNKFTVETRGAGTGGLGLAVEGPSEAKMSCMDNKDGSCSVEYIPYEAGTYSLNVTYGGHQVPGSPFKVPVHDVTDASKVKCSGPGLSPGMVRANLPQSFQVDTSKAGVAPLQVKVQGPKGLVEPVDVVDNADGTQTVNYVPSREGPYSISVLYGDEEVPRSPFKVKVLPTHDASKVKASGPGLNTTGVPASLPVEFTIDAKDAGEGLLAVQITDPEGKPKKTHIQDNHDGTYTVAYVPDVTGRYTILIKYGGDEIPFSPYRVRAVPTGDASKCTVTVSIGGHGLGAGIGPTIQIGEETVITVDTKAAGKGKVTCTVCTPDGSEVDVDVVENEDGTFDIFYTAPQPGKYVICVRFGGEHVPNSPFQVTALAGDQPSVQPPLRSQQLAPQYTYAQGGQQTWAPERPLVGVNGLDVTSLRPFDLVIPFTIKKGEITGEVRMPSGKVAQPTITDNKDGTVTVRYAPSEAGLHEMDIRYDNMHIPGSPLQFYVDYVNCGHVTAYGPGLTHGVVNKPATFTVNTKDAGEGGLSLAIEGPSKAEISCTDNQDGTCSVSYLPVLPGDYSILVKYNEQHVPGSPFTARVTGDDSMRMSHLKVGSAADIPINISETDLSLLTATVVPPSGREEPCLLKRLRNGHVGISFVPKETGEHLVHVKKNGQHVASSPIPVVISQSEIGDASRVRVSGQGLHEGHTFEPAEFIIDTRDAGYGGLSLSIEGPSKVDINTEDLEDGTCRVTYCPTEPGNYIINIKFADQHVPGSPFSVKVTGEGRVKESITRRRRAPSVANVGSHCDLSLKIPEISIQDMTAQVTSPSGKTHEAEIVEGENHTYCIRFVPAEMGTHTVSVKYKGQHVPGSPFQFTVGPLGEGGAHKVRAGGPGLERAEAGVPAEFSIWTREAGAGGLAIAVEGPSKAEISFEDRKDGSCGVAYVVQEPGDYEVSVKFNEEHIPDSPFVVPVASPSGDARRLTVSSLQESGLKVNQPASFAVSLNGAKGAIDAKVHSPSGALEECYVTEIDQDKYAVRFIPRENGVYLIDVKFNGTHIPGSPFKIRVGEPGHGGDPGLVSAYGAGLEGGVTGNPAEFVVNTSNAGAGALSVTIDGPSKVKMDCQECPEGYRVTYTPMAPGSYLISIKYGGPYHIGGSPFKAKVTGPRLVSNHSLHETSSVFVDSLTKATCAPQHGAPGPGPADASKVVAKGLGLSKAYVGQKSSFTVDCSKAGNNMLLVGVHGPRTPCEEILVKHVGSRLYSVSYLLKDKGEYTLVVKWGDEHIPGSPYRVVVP

Target: T1, human FLNA-α7nAChR complex (Homo sapiens, UniProt P21333)
T1 construct: To determine the levels of FLNA-α7nAChR, FLNA-TLR4 and α7nAChR-Aβ42 complexes in the lymphocytes; endogenous in cells; host or cells: lymphocytes from venous blood of AD patients and control subjects (ex vivo)
Assay: Supplemental ELISA for FLNA-α7nAChR complex (Example 8: specificity, accuracy, precision, linearity, detection limit)
Method: The following study was carried out to assist in development of a protocol for an ELISA assay method for quantitative detection of human FLNA-α7nAChR/TLR4 complex. The following ELISA method activities were carried out to quantify FLNA-α7nAChR complex: specificity; accuracy; precision/repeatability; linearity and range; and, detection limit.
To assure ELISA assay uniquely identifies human FLNA-α7nAChR complex, the cross reactivity to human FLNA-α7nAChR complex, unrelated human proteins human leptin and human chorionic gonadotropin (hLeptin and hCG) were added to the lymphocyte lysate preparations and the ELISA assay performed.
To assure the ELISA assay returns a value that is representative of the “true” value, a range of concentrations of recombinant human leptin was spiked into lysate sample with FLNA-α7nAChR complex. Recovery percent concentrations were measured and accuracy calculated.
To assure that three measurements of a single lysate sample (e.g., sample AD#63) made in the same assay provide the same result, three samples were measured using the ELISA assay, three times on the same day using the same methods (repeatability). Within-day RSD was calculated.
To assure that the response is linear over the range of expected sample values, OD 450 of different concentrations of human FLNA-α7nAChR complex were detected using the ELISA assay. […]

hCG: unrelated human proteins human leptin and human chorionic gonadotropin (hLeptin and hCG); human recombinant CG
Normalized OD, Average (5 μg protein per well instead of lymphocyte lysate): 0.01
% Cross reactivity (5 μg protein per well, relative to 5 μg AD#63 lysate): 3.1%
